Experimental data as given in patent US20080299132A1, “Synergistic compositions for treating HIV-1” (Roche Palo Alto LLC, priority 2006, published 2008).

Sequences of proteins named here, by UniProt entry; tags and fusion partners are left off.
UniProt P51681, whole entry: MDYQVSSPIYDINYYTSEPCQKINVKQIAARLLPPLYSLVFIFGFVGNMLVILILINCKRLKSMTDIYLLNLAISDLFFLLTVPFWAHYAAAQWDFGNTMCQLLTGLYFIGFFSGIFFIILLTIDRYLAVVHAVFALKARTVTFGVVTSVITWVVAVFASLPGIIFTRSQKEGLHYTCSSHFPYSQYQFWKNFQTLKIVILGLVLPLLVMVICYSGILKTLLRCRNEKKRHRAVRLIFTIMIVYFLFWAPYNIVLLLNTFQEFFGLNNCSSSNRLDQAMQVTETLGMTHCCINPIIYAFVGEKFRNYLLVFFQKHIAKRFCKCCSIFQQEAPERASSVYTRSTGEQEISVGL

Molecular target: CCR5 (Homo sapiens, UniProt P51681)
Test: CCR5-mediated cell-cell fusion (CCF) assay, single agents
Format: cell-based
Details: read-out: IC50 ± SD, inhibitor alone

IC50	SMILES
4 nM	Cc1cccc(C)c1C(=O)N1CC2CN(CC[C@H](NC(=O)C3CCCC3)c3ccccc3)CC2C1 (stereo partly drawn)
0.4 nM	CC(=O)N1CCC(C(=O)N(CCCN2CC3CN(C(=O)c4c(C)cccc4C)CC3C2)c2ccc(C)c(Cl)c2)CC1 (stereo not drawn)
1 nM	CCCC[C@H]1CN(CC2CCOCC2)C(=O)OC12CCN(C1(C)CCN(C(=O)c3c(C)ncnc3C)CC1)CC2
